Series [1] can be described thus: in vitro. The settings on record: mouse, liver microsomes.
Series [2] can be described thus: in vitro. Conditions: human, liver microsomes. In general terms: Liver microsomes are a subcellular fraction often used to study metabolism.
The nature of series [3]: in vitro. Conditions: mouse, liver microsomes. This is another data set of the same source.
Series [4] can be described thus: in vitro. The settings on record: human, liver microsomes. This is another data set of the same source.

The source of these data is ChEMBL document CHEMBL5537130, “Structure-based design of potent FABP4 inhibitors with high selectivity against FABP3” (Eur J Med Chem, 2024).

Molecules are shown by their SMILES.

A word on the half-life: it is the time in which the quantity being followed falls by half. The low end stands for rapid decline, the high end for slow decline.

With `Cc1cccc(Nc2cccc(Cl)c2-c2ccccc2)c1C(=O)O`, the half-life at 1 h, 1 µM was found to be 2.18 h in the series “in vitro [1]” and 2.75 h in “in vitro [2]”. The Fh at 1 h, 1 µM is 73.4% in the series “in vitro [3]” and 60.6% in the series “in vitro [4]”.
In the case of `Cc1cccc(Nc2cccc(Cl)c2-c2ccc3c(c2)CCO3)c1C(=O)O`, the half-life at 1 h, 1 µM in “in vitro [1]” came to 2.63 h; in the series “in vitro [2]”, 0.395 h. The Fh at 1 h, 1 µM in “in vitro [3]” came out at 76.9%; in “in vitro [4]” it was 18.1%.
